Article PMC5371653, “Pharmacological and Biochemical Characterization of TLQP-21 Activation of a Binding Site on CHO Cells” (Frontiers in Pharmacology, 2017)

What was measured:
[1] = system: TLQP-21 binding sites on CHO cell membranes; assay: TLQP-21 binding assay with [125I]-YATL-23 on crude CHO cell membranes; conditions: mean ± SEM of three independent experiments
Description: Binding of TLQP-21 to crude membranes (30,000 × g pellet) obtained from CHO cells was carried out using [^125I]-YATL-23 as ligand. YATL-23 was radioiodinated (specific activity, 2000 Ci/mmol) using the lactoperoxidase method ([Muccioli et al., 1998]; [Muccioli et al., 2001]) by Perkin Elmer (Milan, Italy) and purified by reverse phase high-performance liquid chromatography. For the single point binding assay, cell membranes (corresponding to 100 μg membrane protein) were incubated in triplicate at 23°C, unless otherwise noted, for 4 h under constant shaking with 0.5 nM [^125I]-YATL-23 in a final volume of 0.5 ml assay buffer (50 mM Tris, 2.5 mM EGTA, 0.002% bacitracin, 0.1% bovine serum albumin, titrated to a final pH of 7.4 with HCl). Non-specific binding was measured in parallel incubations with 1 μM unlabelled YATL-23 to displace the radioligand. Similar results were obtained using TLQP-21 to displace the radioligand. The binding reaction was terminated by the addition of ice-cold assay buffer, followed by rapid filtration through Whatman GF/B filters as previously reported ([Muccioli et al., 1998]) and the radioactivity bound to membranes was measured by a Packard auto-γ-counter. Specific binding-values were calculated as the difference obtained subtracting non-specific from total binding. Specific binding was expressed as a percentage of the total radioactivity added. […]

CHO cells = format: cell-based; conditions: data not shown
Description: CHO cells were plated at 20.000 cells/well into black walled, clear bottom 96-well plate (Corning, Germany) and cultured one day up to 80–90% of confluence. […] TLQP-21, TLQP-62, TLQP-8, HHPD-41, HFHH-10, and LRPS-21 were diluted in HBSS solution and injected into the wells by an automated injector system. […] Depletion of Ca^2+ from the ER leads to Ca^2+ entry from outside the cell by activation of Store-Operated Channels (SOCs).

SMILES	Kd ([1]; saturation binding, 0.03–4 nM [125I]-YATL-23, 100 μg membrane protein, pH 7.4, 4 h, 23°C, Scatchard analysis, read-out: Kd (dissociation constant) of specific binding) [pM]	in vitro biological activity in CHO cells compared with TLQP-21 (CHO cells)	IC50 ([1]; competition with 1 nM [125I]-YATL-23, 150 μg membranes/tube, competitor 10 pM to 0.1 μM, one-site binding model, read-out: IC50 of specific radioligand binding) [pM]
CC(C)C[C@H](NC(=O)[C@@H](NC(=O)[C@H](C)NC(=O)[C@@H](N)Cc1ccc(O)c(I)c1)[C@@H](C)O)C(=O)N[C@@H](CCC(N)=O)C(=O)N1CCC[C@H]1C(=O)N1CCC[C@H]1C(=O)N[C@@H](C)C(=O)N[C@@H](CO)C(=O)N[C@@H](CO)C(=O)N[C@@H](CCCNC(=N)N)C(=O)N[C@@H](CCCNC(=N)N)C(=O)N[C@@H](CCCNC(=N)N)C(=O)N[C@@H](Cc1c[nH]cn1)C(=O)N[C@@H](Cc1ccccc1)C(=O)N[C@@H](Cc1c[nH]cn1)C(=O)N[C@@H](Cc1c[nH]cn1)C(=O)N[C@@H](C)C(=O)N[C@@H](CC(C)C)C(=O)N1CCC[C@H]1C(=O)N1CCC[C@H]1C(=O)N[C@@H](C)C(=O)N[C@@H](CCCNC(=N)N)C(=O)O [[^125I]-YATL-23]	550	–	–
CC(C)C[C@H](NC(=O)[C@@H](NC(=O)[C@H](C)NC(=O)[C@@H](N)Cc1ccc(O)cc1)[C@@H](C)O)C(=O)N[C@@H](CCC(N)=O)C(=O)N1CCC[C@H]1C(=O)N1CCC[C@H]1C(=O)N[C@@H](C)C(=O)N[C@@H](CO)C(=O)N[C@@H](CO)C(=O)N[C@@H](CCCNC(=N)N)C(=O)N[C@@H](CCCNC(=N)N)C(=O)N[C@@H](CCCNC(=N)N)C(=O)N[C@@H](Cc1c[nH]cn1)C(=O)N[C@@H](Cc1ccccc1)C(=O)N[C@@H](Cc1c[nH]cn1)C(=O)N[C@@H](Cc1c[nH]cn1)C(=O)N[C@@H](C)C(=O)N[C@@H](CC(C)C)C(=O)N1CCC[C@H]1C(=O)N1CCC[C@H]1C(=O)N[C@@H](C)C(=O)N[C@@H](CCCNC(=N)N)C(=O)O [YATL-23]	–	same in vitro biological activity of TLQP-21	1200
